Laboratory results taken from ChEMBL document CHEMBL3596167, “Branched -d-mannopyranosides: a new class of potent FimH antagonists” (Medchemcomm, 2014).

Protein sequences, listed by entry. Tags and fused reporters are not part of them.
UniProt P08191, whole entry: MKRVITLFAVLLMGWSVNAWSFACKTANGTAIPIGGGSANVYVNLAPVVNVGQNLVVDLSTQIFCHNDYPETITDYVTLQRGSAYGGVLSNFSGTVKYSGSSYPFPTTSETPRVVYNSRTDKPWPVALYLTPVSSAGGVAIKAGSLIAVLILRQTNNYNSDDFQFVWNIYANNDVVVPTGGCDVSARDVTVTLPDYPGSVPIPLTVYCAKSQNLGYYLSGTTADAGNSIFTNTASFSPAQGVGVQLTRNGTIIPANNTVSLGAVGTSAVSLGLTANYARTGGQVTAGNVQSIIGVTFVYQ

Columns and labels:
[1] = target: Type 1 fimbrin D-mannose specific adhesin (Escherichia coli K-12) (UniProt P08191); assay: Inhibition of Escherichia coli FimH relative to heptyl alpha-D-mannopyranoside
[2] = target: Type 1 fimbrin D-mannose specific adhesin (Escherichia coli K-12) (UniProt P08191); assay: Inhibition of Escherichia coli FimH relative to methyl alpha-D-mannopyranoside

- Ratio [1]: 1
- Ratio [2]: 440
SMILES: CCCCCCCO[C@H]1O[C@H](CO)[C@@H](O)[C@H](O)[C@@H]1O
